Paper PMC11164251 (International journal of biological macromolecules, 2023)

Columns and labels:
Test in all cases: ITC of HsLeo1 peptides with the HsTFIIS LW domain
[1] = target: HsTFIIS LW domain; type: binding, Homo sapiens; conditions: HsTFIIS LW domain mutant printed as W339A
Method in brief: (§1)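 Recombinant N-His-tagged LW domain (wild type or point mutant), expressed in E. coli BL21 (DE3) (0.5 mM IPTG, 16 °C, 20 h) and purified by Ni-NTA, gel filtration and ion exchange. ITC: 50 uM protein in cell, 1mM synthetic Leo1 peptides in syringe, 16 × 2 μl injections at 120 s intervals. Buffer: 25 mM Tris, 200 mM NaCl, 1 mM EDTA, 1 % glycerol, pH 7.4, 25 °C. Peptide-into-buffer heat of dilution subtracted.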

[2] = target: HsTFIIS LW domain (Homo sapiens, UniProt P23193, K67A); type: binding; conditions: HsTFIIS1–96 LW mutant K67A, pH 7.4, 25 °C
Method in brief: as §1

[3] = target: HsTFIIS LW domain (Homo sapiens, UniProt P23193, I70A); type: binding; conditions: HsTFIIS1–96 LW mutant I70A, pH 7.4, 200 mM NaCl, 25 °C
Method in brief: as §1

[4] = target: HsTFIIS LW domain (Homo sapiens, UniProt P23193, L41A); type: binding; conditions: HsTFIIS1–96 LW mutant L41A, pH 7.4, 200 mM NaCl, 25 °C
Method in brief: as §1

[5] = target: HsTFIIS LW domain (Homo sapiens, UniProt P23193, W73A); type: binding; conditions: HsTFIIS1–96 LW mutant W73A, pH 7.4, 200 mM NaCl, 25 °C
Method in brief: as §1

[6] = target: HsTFIIS LW domain (Homo sapiens, UniProt P23193); type: binding; conditions: pH 7.4, 25 °C
Method in brief: as §1

CSCC[C@H](NC(=O)[C@H](CC(=O)O)NC(=O)[C@H](C)N)C(=O)N[C@@H](CCC(=O)O)C(=O)N[C@@H](CC(=O)O)C(=O)N[C@@H](CC(C)C)C(=O)N[C@@H](Cc1ccccc1)C(=O)NCC(=O)N[C@@H](CO)C(=O)N[C@@H](CC(=O)O)C(=O)N[C@@H](C)C(=O)N[C@@H](CC(=O)O)C(=O)N[C@@H](CO)C(=O)N[C@@H](CCC(=O)O)C(=O)N[C@@H](C)C(=O)O [HsLeo1_2–16]
binding (ITC), result in words [1]: abolishes the interactions | N (ITC binding stoichiometry) [2]: 1.00 | Kd [3]: no binding | Kd [4]: no binding | Kd [5]: no binding | N (ITC binding stoichiometry) ([6]; HsTFIIS1–78 LW): 1.00 | N (ITC binding stoichiometry) ([6]; wild type HsTFIIS1–96 LW): 1.00
